Measurements reported in patent US6008245A, “Sulfonamide-substituted benzopyran derivatives, processes for their preparation, their use as a medicament, and pharmaceutical preparations comprising them” (priority 1997, dated 1999).

Biological target: T1, human IsK protein (UniProt P15382+P70057)
T1 construct: expressed in transfected cells; host or cells: Xenopus laevis oocytes injected with in vitro synthesized IsK RNA
Test: cell-based

CN([C@H]1c2cc(OCCCC(F)(F)F)ccc2OC(C)(C)[C@@H]1O)S(C)(=O)=O [Example 19, (3R,4S)-(+)-N-[3-Hydroxy-2,2-dimethyl-6-(4,4,4-trifluorobutoxy)chroman-4-yl]-N-methyl-methanesulfonamide]
IC50: 100 nM

CN([C@@H]1c2cc(OCCCC(F)(F)F)ccc2OC(C)(C)[C@H]1O)S(C)(=O)=O (racemic) [Example 13, (±)-trans-N-[3-Hydroxy-2,2-dimethyl-6-(4,4,4-trifluorobutoxy)-chroman-4-yl]-N-methyl-methanesulfonamide]
IC50: 200 nM

CN([C@@H]1c2cc(OCCCC(F)(F)F)ccc2OC(C)(C)[C@H]1O)S(C)(=O)=O [Example 20, (3S,4R)-(-)-N-[3-Hydroxy-2,2-dimethyl-6-(4,4,4-trifluorobutoxy)chroman-4-yl]-N-methyl-methanesulfonamide]
IC50: 400 nM
